In PMC10257519 (European journal of medicinal chemistry, 2022):

Tested on: acetyl–H3 and pan acetyl–lysine
Test: Hyperacetylation assay by Western blot
Format: cell-based, human
Conditions: 5 and 10 μM

O=C(CCCCCCC(=O)Nc1ccccc1)NO [SAHA, vorinostat, reference compound]
levels of acetylated H3 (Western blot): increased levels
levels of pan-acetyl-lysine (Western blot): increased levels
